# Laboratory results reported in patent US9072800B2, “Hand sanitizer” (TRISTEL PLC, priority 2009, dated 2015).
# Conditions: extended periods
substance,measurement,value
sodium chlorite,stability in alcoholic medium,stable
